From patent US20250064957A1, “EXATECAN DERIVATIVES, LINKER-PAYLOADS, AND CONJUGATES AND THEREOF” (priority 2021, published 2025) come the findings set out here.

Data set [1] deals with JIMT-1 human breast cancer cells (HER2 medium). In words: JIMT-1 human breast cancer xenograft model. The data set is classed as in vivo. The following applies: SCID Beige mice, 5 mg/kg intravenously. How it is done: 5×10^6 JIMT-1 human breast cancer cells (HER2 medium) were inoculated subcutaneously in the right flank in SCID Beige mice. After 7 days, when tumor volume reached 142 mm^3 on average, the tumor bearing mice were assigned and administrated intravenously of LC1184(8) and other five different conjugates at 5 mg/kg. The tumor volume was measured twice weekly with calipers. […] The conjugate of the present invention achieves great efficacy in lower DAR.
(In general: Xenograft models place foreign cells or tissue in a host animal.)

The subject of data set [2] is MDA-MB-468 cells in co-culture with SK-BR-3. In words: Bystander killing in co-culture of SK-BR-3 and MDA-MB-468-Luc-GFP. The data set is classed as cell-based. As to conditions: SKBR3:MDA-MB-468-Luc-GFP 4:1, 50, 10 and 1 nM, 120 h; GFP fluorescence and luciferase luminescence. How it is done: • 1) Cell collection and counting. • 2) The cell density was adjusted to 1*10^5 cells/ml • 3) The cell mixture was prepared, wherein SKBR3: MDA-MB-468-Luc-GFP=4:1, 5 ml.
Cell plating: 1*10^4 cells/well, 100 μl/well
Test samples: Three final concentrations are prepared from dilution with the cell medium: 50, 10 and 1 nM. • 4) The drug was administered the next day, 100 μl/well. • 5) Incubate in a 5% CO2 incubator at 37° C. for 120h. • (1) washed by PBS to remove dead cells, and detected by Cytation3 plate reader; • (2) Biyuntian luciferase reporter gene assay kit: lysed in 37° C. incubator for 10 min using 100 μl lysis buffer. Centrifuged at 2000 rpm for 5 minutes. 100 μl supernatant was taken. 100 μl substrate was added. The chemiluminescence was detected by microplate reader (gain: 200).
Two methods (GFP fluorescence counting and luciferase substrate luminescence method) were used for determination of bystander killing effects (FIG. 4a, 4b and FIG. 5).

The test system of data set [3] is Capan-1 human pancreatic cancer cells (HER2 low). In words: Capan-1 human pancreatic cancer xenograft model (1). The data set is classed as in vivo. The following applies: BALB/c nude mice, 5 mg/kg intravenously. How it is done:
5×10^6 Capan-1 human pancreatic cancer cells (HER2 low) were inoculated subcutaneously in the right flank in BALB/c nude mice to generate xenograft model. After 8 days, when tumor volume reached 178 mm^3 on average, the tumor bearing mice were administrated intravenously of LC1184(8) and other five different conjugates at 5 mg/kg. The tumor volume was measured twice weekly with calipers.

Data set [4] relates to MDA-MB-468 HER2-negative cell line. In words: Effect of HER2-targeting conjugates on cell proliferation (CellTiter-Glo), MDA-MB-468. Type of data set: cell-based. As to conditions: MDA-MB-468, 120 h, up to 200 nM. The method, then:
Study Purpose: Cell viability was detected by CellTiter-Glo assay to evaluate the effects of the ADCs on the proliferation of two high HER2 tumor cell lines SK-BR-3, NCI-N87 and a HER2-negative tumor cell line MDA-MB-468, and to analyze the effects of the ADCs on the proliferation of tumor cells.
• (1) Microscopic examination of cells • (2) Digestion: digested using 2 mL 0.25% trypsin for 3 minutes; • (3) Centrifuge: 1000 rpm for 5 min; • (4) Cell counting • A. Cell dilution: • B. Cell plating: in 100 μl/well • C. Incubation: 37° C., 5% CO2, overnight
• (1) Microscopic examination • (2) Drug preparation: • A. Preparation of Buffer for preparation of samples: the desired amount of Buffer for preparation of samples was prepared using the culture medium (10% FBS) for the testing cells; • B. Sample preparation: the sample was diluted from the first concentration to the desired concentration in a 96-well deep-well Plate.
Positive control Puromycin: A stock solution of 10 mg/ml was used, and diluted with the cell medium. A dilution of 100-fold was preformed, and then a dilution of 10-fold was preformed when applying the compounds to reach the testing concentration 5 μg/ml for puromycin. • (4) Application of the compounds: for each concentration of the diluted series, the compound was applied in triplicate. […]

Turning to LC302-2-4(4), the “efficacy (tumor volume) in JIMT-1 CDX model” value in data set [1] is reported as “better efficacy than LC1184(8)”. In addition, in data set [2], the bystander killing effect result is listed as “outstanding bystander killing effects”. In data set [3], the “efficacy (tumor volume) in Capan-1 CDX model (1)” value was “comparable efficacy to LC1184(8)”. The “cytotoxicity in HER2 negative cell MDA-MB-468” value in data set [4] is reported as “No cytotoxicity was observed”.
